This experiment has as its target T1, MRGPRX4 (S83) (Homo sapiens, UniProt Q96LA9, L83S).
T1 construct: expressed in transfected cells
Put plainly: EC50 determination, intracellular calcium mobilization in MRGPRX4 stably expressed HEK293 cells (FLIPR Calcium 5, Flexstation-3). It is filed as cell-based. For orientation: A change in cytosolic calcium serves as a functional read-out for many receptors and channels.

The chains behind the UniProt entries cited, without tags or fusion partners.
UniProt Q96LA9, whole entry L83S: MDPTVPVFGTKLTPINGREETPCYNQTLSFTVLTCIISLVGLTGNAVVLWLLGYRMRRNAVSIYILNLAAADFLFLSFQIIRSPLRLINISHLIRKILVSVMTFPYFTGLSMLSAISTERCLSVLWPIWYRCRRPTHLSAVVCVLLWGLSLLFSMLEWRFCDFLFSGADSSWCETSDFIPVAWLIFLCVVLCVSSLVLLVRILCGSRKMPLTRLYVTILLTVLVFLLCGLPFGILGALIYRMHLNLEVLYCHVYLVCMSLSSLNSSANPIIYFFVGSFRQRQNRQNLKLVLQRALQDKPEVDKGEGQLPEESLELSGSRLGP

The term EC50 denotes the concentration needed to bring the measured effect to its halfway point. With Dexamethasone palmitate, the EC50 amounted to 61 µM.
